Screening results from PubChem.
A selection: hits, their analogues and other compounds. The true share with any hit is near 3.7%.
A549 tox = A549 cytotoxicity, counter-screen for Nrf2 inhibitors; A549 ARE-Fluc cells, CellTiter-Fluor viability, 18-24 h; Potency, µM (doses to about 46 µM), for inactives: top-dose activity change, negative = cytotoxicity, hits mostly inhibitors; 390,000 compounds, 0.16% hits; AID 504648; note: potency is the fitted concentration of half-maximal effect; % is set by controls: 0 for no effect and ±100 for the full control effect
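A549 ARE-Fluc cells in 5% FBS OPTI-MEM, 5000 cells/well, rested 2 h then exposed to compounds in concentration-response for 18-24 h at 37 °C. Viability by CellTiter-Fluor fluorescence (Ex 405/Em 525) after 30 min; luciferase luminescence (BugLite, 15 min, RT) read afterwards.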
Nrf2 ARE act = activates Nrf2 signaling; AREc32 ARE-luciferase reporter (MCF7-derived line), luminescence, 24 h; Potency, µM (doses to about 46.1 µM), inactives show at the top dose activation, actives largely listed as activators; 410,000 compounds, 0.31% hits; AID 624171; note: potency is the fitted concentration of half-maximal effect; % of control where 0% means no effect; nearly all actives have a fitted effect of over 65% in size
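Luminescent ARE reporter assay in AREc32_Fluc cells: overnight plating at 37 deg C, 24 hr compound incubation, Steady-Glo added, 30 min RT before reading.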
Nrf2 block = blocks Nrf2 signaling | A549 ARE-Fluc reporter, luciferase luminescence, 18-24 h | Potency, µM (highest dose often 46 µM), for inactives: top-dose activity change, negative = inhibition, hits mostly inhibitors | 360,000 compounds, 2.1% hits; note: potency is the fitted concentration of half-maximal effect; % is set by controls: 0 for no effect and ±100 for the full control effect; nearly all actives have a fitted effect of over 60% in size
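In this cell-based qHTS, ARE-driven firefly luciferase in A549 cells reports Nrf2 activity; the luminescent signal after BugLite lysis is the measured value, with a prior CellTiter-Fluor read for cell health.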
IL2 activator = IL-2 activation; IL-2 activation reporter assay, cell-based qHTS; stimulated with anti-CD3/CD4/CD28 beads; in transgenic mouse T cells; activation, % (series mostly up to about 46 µM); 360,000 compounds, 0.065% hits; in the data active = activation above about 50%; inconclusive = mostly about 30% to 49%; note: 0% is about no effect
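Unstimulated transgenic mouse T cells preincubated 60 min with compound, then stimulated with anti-CD3/anti-CD4-coated beads plus anti-CD28 for 18 h at 37 degrees C. IL-2 response read as EGFP and DsRed fluorescence by plate cytometry.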
ClpP mod = qHTS Assay for Activators of ClpP; ATP-dependent Clp protease proteolytic subunit (Bacillus subtilis (strain 168)), P80244; purified B. subtilis ClpP, FRET peptide cleavage, 20 min; Potency, µM (titrated, usually from 57.5 µM), for the others: top-dose activity change, negative = active; 340,000 compounds, 1.9% hits; AID 651965, 2013; active = well fitted falling curve with a large enough effect; inconclusive = small, poorly fitted or top-dose-only effect; inactive = no such curve, though single readings can be large or run the other way; note: potency is the fitted concentration of half-maximal effect; the source files actives as falling curves though it sought activators and does not explain the sign; nearly all actives have a fitted effect of over 65% in size
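Purified B. subtilis ClpP, 10 microg/mL final in Tris/HCl pH8 with KCl, BSA, glycerol and Tween-20, cleaved an Abz/nitrotyrosine-quenched decapeptide. Fluorescence (ex 320, em 430) was read at 0 and 20 min at room temperature. Delta was normalized to 5.8 microM ADEP and DMSO/no-enzyme controls.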
miR-21 reporter = raises the signal of a miR-21 reporter; Potency, µM (doses to about 38.3 µM), inactives show top-dose reporter change, positive = more light; HeLa miR-21 FLuc reporter, luciferase, 48 h; AID 2288; 340,000 tested, under 10 active; active = well fitted rising curve with a large enough effect; inconclusive = small, poorly fitted or top-dose-only effect; inactive = no such curve, though single readings can be large or run the other way;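 further: % of control where 0% means no effect; miR-21 action dims this reporter so a rising signal means less miR-21 action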
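Using DMEM plus 10% FBS, HeLa miR-21-FLuc cells are incubated with test compounds (final up to about 40uM) for 48 hours; firefly luciferase signal is then imaged following reagent-mediated lysis.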
An asterisk follows results filed as active; ? = inconclusive; nt = not tested or not shown. Unless noted, calls come from the whole dose curve; as a rule, active = well fitted curve in the direction sought with a large enough effect; inconclusive = small, poorly fitted or top-dose-only effect, or another doubt; inactive = no such curve, though single readings can be large; an effect the other way counts as inactive or inconclusive.

Field names – A = A549 tox; B = Nrf2 ARE act; C = Nrf2 block; D = IL2 activator; E = ClpP mod; F = miR-21 reporter
COc1ccc(N2CCN(C(=O)C(C)n3c(=O)cc(C(F)(F)F)c4c(C)nn(C)c43)CC2)cc1 (stereo unspecified)
  A: 0%; B: -1%; C: ?; D: nt; E: 1%; F: 23%

CCn1c(=O)cc(SCC(=O)Nc2ccc(C)c(F)c2)c2ccccc21
  A: -4%; B: -1%; C: 23µM*; D: nt; E: -10%; F: -1%

CCn1c(=O)cc(SCC(=O)NCCc2ccc(Cl)cc2)c2ccccc21
  A: -6%; B: 5%; C: -4%; D: nt; E: -14%; F: -1%

CCn1c(=O)cc(OCC(=O)Nc2ccc(C)c(F)c2)c2ccccc21
  A: -6%; B: 1%; C: 17%; D: nt; E: -2%; F: 4%

CCOc1ccc(CCNC(=O)CSc2cc(=O)n(CC)c3ccccc23)cc1OCC
  A: -3%; B: 6%; C: -27%; D: -5; E: 32µM*; F: -12%

CC1Sc2ccc(S(=O)(=O)N3CCC(C(=O)NCCc4ccccc4)CC3)cc2NC1=O (stereo unspecified)
  A: 0%; B: 2%; C: -28%; D: -4; E: 0%; F: 12%

Cc1ccc(NC(=O)C2CCN(S(=O)(=O)c3ccc4c(c3)NC(=O)C(C)S4)CC2)c(Cl)c1 (stereo unspecified)
  A: -17%; B: 4%; C: 23µM*; D: 0; E: 2%; F: 24%

COc1cccc(CNC(=O)C2CCN(S(=O)(=O)c3ccc4c(c3)NC(=O)C(C)S4)CC2)c1 (stereo unspecified)
  A: -5%; B: 0%; C: 18µM*; D: -1; E: -2%; F: 15%

Cc1cc(C)cc(NC(=O)C2CCN(S(=O)(=O)c3ccc4c(c3)NC(=O)C(C)S4)CC2)c1 (stereo unspecified)
  A: -16%; B: 1%; C: -16%; D: -5; E: -1%; F: 17%

Cc1ccc(CCNC(=O)C2CCN(S(=O)(=O)c3ccc4c(c3)NC(=O)C(C)S4)CC2)cc1 (stereo unspecified)
  A: -25%; B: 3%; C: 16µM*; D: -2; E: nt; F: 25%

Cc1nc(N2CCCC2)c2c(C(=O)N3CCN(c4cc(Cl)ccc4C)CC3)c(C)oc2n1
  A: ?; B: 0%; C: ?; D: nt; E: -2%; F: ?

CCOc1ccc(OCC)c(NC(=O)C2CCN(S(=O)(=O)c3cn(C)cn3)CC2)c1
  A: 0%; B: 1%; C: nt; D: nt; E: 1%; F: -6%

CCc1ccc2oc(C(=O)NCc3ccncc3)c(C)c2c1
  A: -11%; B: 4%; C: ?; D: -1; E: 28µM*; F: -23%

CCCCN(CCCC)S(=O)(=O)c1ccc2oc(C(=O)NCc3ccc(C)cc3)c(C)c2c1
  A: -1%; B: 0%; C: nt; D: nt; E: -1%; F: 14%

CCc1ccc2oc(C(=O)Nc3nc(-c4ccccc4)ns3)c(C)c2c1
  A: 3%; B: 3%; C: -3%; D: nt; E: 25µM*; F: 13%

CCN(CC)S(=O)(=O)c1ccc(NC(=O)NCc2noc3ccc(C)cc23)cc1
  A: ?; B: 0%; C: 18µM*; D: nt; E: 2%; F: ?

CCN(CC)S(=O)(=O)c1ccc2oc(C(=O)NCc3ccc(C)cc3)c(C)c2c1
  A: 2%; B: 0%; C: 16µM*; D: -1; E: -2%; F: 15%

FC(F)(F)c1cccc(-n2cc(-c3ccccc3)c3c(N4CCCCC4)ncnc32)c1
  A: 14%; B: 0%; C: nt; D: nt; E: 0%; F: -1%

Cc1ccc2c(c1)C(=O)C(=O)N2Cc1ccc(OCCC(C)C)cc1
  A: 1%; B: 0%; C: 20%; D: nt; E: 5%; F: 16%

CN(C)C(=O)c1ccc(/C=C/c2ccnc3ccccc23)cc1
  A: nt; B: nt; C: nt; D: nt; E: -6%; F: nt

CCCCC1C(=O)N(c2ccccc2)N(c2ccc(O)cc2)C1=O (stereo unspecified)
  A: ?; B: ?; C: 26µM*; D: 0; E: -2%; F: nt

Cc1cccc(C)c1OCc1cc(C(=O)N2CCC(c3ccncc3)CC2)no1
  A: -8%; B: 3%; C: 3%; D: -4; E: 1%; F: -14%

O=C(c1cc(COc2c(F)cccc2F)on1)N1CCC(c2ccncc2)CC1
  A: -19%; B: 3%; C: 7.3µM*; D: 0; E: -1%; F: 13%

Cc1ccc2nccnc2c1
  A: nt; B: nt; C: nt; D: nt; E: -13%; F: nt

CN(CC(=O)N1CCN(c2ncccn2)CC1)S(=O)(=O)c1ccc(Cl)cc1
  A: 6%; B: 0%; C: 4%; D: 4; E: nt; F: -11%

O=C(c1ccc(C#Cc2ccccc2)o1)N1CCN(c2ccccn2)CC1
  A: ?; B: 0%; C: 18µM*; D: -1; E: -8%; F: -7%

O=C(Cc1ccccc1)N1CCN(c2ncccn2)CC1
  A: -2%; B: -1%; C: -9%; D: -4; E: -8%; F: -3%

COc1ccc(C(=O)N2CCN(c3ccccn3)CC2)cc1
  A: -10%; B: -1%; C: 2%; D: -1; E: -18%; F: -2%

CN(CC(=O)N1CCN(c2ccccn2)CC1)S(=O)(=O)c1ccccc1
  A: -3%; B: 0%; C: nt; D: 0; E: 32µM*; F: -37%

COc1ccc(CC(=O)N2CCN(c3ccccn3)CC2)cc1
  A: 0%; B: 1%; C: -20%; D: 1; E: 20µM*; F: -22%

(more compounds)
Screens in order – A549 tox | Nrf2 ARE act | Nrf2 block | IL2 activator | ClpP mod | miR-21 reporter
Cc1ccc(CC(=O)N2CCN(c3ccccn3)CC2)cc1
  -3% | 1% | -2% | -1 | 22µM* | -20%
COc1ccc(N2Cc3cccc(C(=O)Nc4ccc(F)cc4)c3C2=O)cc1
  11% | 0% | ? | nt | -28% | 20%
CCOc1ccc(NC(=O)c2nc(S(=O)(=O)Cc3ccc(F)cc3)ncc2Cl)cc1
  nt | nt | nt | nt | 1% | nt
CC(C)c1ccc(C(C)NC(=S)NC2CCCCC2)cc1 (stereo unspecified)
  9% | 0% | 18µM* | -2 | 0% | 25%
CC(NC(=S)NC1CCCCC1)c1ccc(C(C)(C)C)cc1 (stereo unspecified)
  1% | 5% | ? | -1 | 7% | 0%
COc1ccc(-c2nc(-c3cccc(C)c3)nc(Cl)c2C#N)cc1
  nt | nt | nt | nt | nt | -4%
COc1ccc(-c2nc(-c3ccccc3)nc(Cl)c2C#N)cc1
  5% | 0% | -5% | -2 | 32µM* | 2%
O=c1cc(C(Cl)(Cl)Cl)oc2c1ccc1ccccc12
  ? | 13µM* | 21µM* | -3 | -3% | -3%
O=c1cc(-c2ccncc2)oc2c1ccc1ccccc12
  -14% | 3% | 18µM* | 1 | -8% | 0%
O=c1cc(-c2ccco2)oc2c1ccc1ccccc12
  6% | ? | -16% | 0 | 0% | 1%

A different layout for part of the listing above.
compound | A549 tox | Nrf2 ARE act | Nrf2 block | IL2 activator | ClpP mod | miR-21 reporter
COc1ccc(-c2nc(-c3cccc(C)c3)nc(Cl)c2C#N)cc1 | nt | nt | nt | nt | nt | -4%
COc1ccc(-c2nc(-c3ccccc3)nc(Cl)c2C#N)cc1 | 5% | 0% | -5% | -2 | 32µM* | 2%
O=c1cc(C(Cl)(Cl)Cl)oc2c1ccc1ccccc12 | ? | 13µM* | 21µM* | -3 | -3% | -3%
O=c1cc(-c2ccncc2)oc2c1ccc1ccccc12 | -14% | 3% | 18µM* | 1 | -8% | 0%

With a hit mark in Nrf2 ARE act, among the entries above:
compound	Nrf2 ARE act	Nrf2 block	IL2 activator	miR-21 reporter
O=c1cc(C(Cl)(Cl)Cl)oc2c1ccc1ccccc12	13µM*	21µM*	-3	-3%

(more compounds)
Screens in order – A549 tox | Nrf2 ARE act | Nrf2 block | IL2 activator | ClpP mod | miR-21 reporter
CC(=O)c1cc(-c2ccccc2)n(CC(=O)NCCc2ccc(C)cc2)c1C
  3% | 0% | nt | nt | 2% | 9%
Cc1c(C(=O)NCc2cccc(F)c2)oc2c1-c1[nH]ncc1CC2
  -18% | 5% | ? | nt | 28µM* | 1%
C/C(=N\OCC(=O)Nc1ccc2c(c1)OCCO2)c1ccc2c(c1)OCCO2
  -14% | 0% | 18µM* | 1 | -2% | -5%
CCN(CC)c1ccc(/C=N/NC(=O)CNC(=O)C2COc3ccccc3O2)c(O)c1 (stereo unspecified)
  -14% | 0% | 23µM* | 1 | -1% | 15%
